Reference: IntAct's records for PubMed 31169361

B1: Nuclear factor erythroid 2-related factor 2 (Homo sapiens), Q16236 (parent)
chain: MMDLELPPPGLPSQQDMDLIDILWRQDIDLGVSREVFDFSQRRKEYELEKQKKLEKERQEQLQKEQEKAFFAQLQLDEETGEFLPIQPAQHIQSETSGSANYSQVAHIPKSDALYFDDCMQLLAQTFPFVDDNEVSSATFQSLVPDIPGHIESPVFIATNQAQSPETSVAQVAPVDLDGMQQDIEQVWEELLSIPELQCLNIENDKLVETTMVPSPEAKLTEVDNYHFYSSIPSMEKEVGNCSPHFLNAFEDSFSSILSTEDPNQLTVNSLNSDATVNTDFGDEFYSAFIAEPSISNSMPSPATLSHSLSELLNGPIDVSDLSLCKAFNQNHPESTAEFNDSDSGISLNTSPSVASPEHSVESSSYGDTLLGLSDSEVEELDSAPGSVKQNGPKTPVHSSGDMVQPLSPSQGQSTHVHDAQCENTPEKELPVSPGHRKTPFTKDKHSSRLEAHLTRDELRAKALHIPFPVEKIINLPVVDFNEMMSKEQFNEAQLALIRDIRRRGKNKVAAQNCRKRKLENIVELEQDLDHLKDEKEKLLKEKGENDKSLHLLKKQLSTLYLEVFSMLRDEDGKPYSPSEYSLQQTRDGNVFLVPKSKKPDVKKN

Variants of: B1
Conditions: with keap1_human KEAP1, Q14145

effect of a mutation on the interaction	Variant
disrupting interaction strength	D77A;E79A
